# Results reported in PubChem BioAssay AID1645860 (Buhrlage Lab, Dana-Farber Cancer Institute and Novartis …, 2021).
# By UniProt entry, the sequences of proteins in these tests, tags left out. Where a name states a change or a piece, a line headed by the entry shows the natural chain unless it says otherwise.
# UniProt Q70CQ3: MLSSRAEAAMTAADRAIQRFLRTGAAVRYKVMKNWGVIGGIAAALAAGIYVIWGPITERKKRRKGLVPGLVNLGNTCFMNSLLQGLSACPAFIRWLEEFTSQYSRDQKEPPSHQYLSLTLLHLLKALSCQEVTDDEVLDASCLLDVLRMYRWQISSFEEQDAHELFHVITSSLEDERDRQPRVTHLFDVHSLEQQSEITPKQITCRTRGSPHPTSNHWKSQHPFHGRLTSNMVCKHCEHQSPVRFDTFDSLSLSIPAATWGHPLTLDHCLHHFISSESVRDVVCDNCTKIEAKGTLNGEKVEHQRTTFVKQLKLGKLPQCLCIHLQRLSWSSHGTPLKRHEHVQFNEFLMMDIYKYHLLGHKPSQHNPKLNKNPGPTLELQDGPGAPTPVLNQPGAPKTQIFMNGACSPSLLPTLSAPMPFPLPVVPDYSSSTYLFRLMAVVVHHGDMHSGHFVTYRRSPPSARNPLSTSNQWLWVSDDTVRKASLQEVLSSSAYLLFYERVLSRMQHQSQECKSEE
# The entries are a selection whose mix differs from that of the whole data set. Active and inactive are the calls of the source. No stated cut-off is given here; in the data, active means inhibition above about 30%; inactive means the rest.
# Target: Ubiquitin carboxyl-terminal hydrolase 30 (Homo sapiens) (UniProt Q70CQ3)
# Experiment: blocks human USP30 ubiquitin-rhodamine cleavage (AID 1645860)
# Details: purified USP30, Ub-rhodamine cleavage fluorescence; at 25 µM; active compounds read high
row,Compound,inhibition
1,CS(=O)(=O)c1ccc(C(=O)N(Cc2cccnc2)C2CCN(CCc3ccc(Cl)cc3)CC2)cc1,inactive: -184%
2,COc1ccc(CCN2CCC(N(Cc3ccco3)C(=O)c3ccc(S(C)(=O)=O)cc3)CC2)cc1,inactive: -79.3%
3,CN1C(=O)C2C(NC(=NCc3ccco3)N2CCc2ccccc2)N(C)C1=O (stereo unspecified),inactive: -18.4%
4,N#Cc1cccc(C(=O)N(Cc2ccco2)C2CCN(CCc3ccccn3)CC2)c1,inactive: 0.231%
5,N#Cc1cccc(C(=O)N(Cc2cccnc2)C2CCN(CCc3ccccn3)CC2)c1,inactive: -113%
6,CS(=O)(=O)c1ccc(C(=O)N(Cc2ccco2)C2CCN(CCc3ccccn3)CC2)cc1,inactive: -101%
7,COc1ccc(CCN2CCC(N(Cc3cccnc3)C(=O)c3cccc(C#N)c3)CC2)cc1,inactive: -93.8%
8,O=C(c1ccc2c(c1)OCO2)N(Cc1ccco1)C1CCN(CCc2ccccn2)CC1,inactive: -75.8%
9,O=C(COC(=O)C(O)(c1ccccc1)c1ccccc1)NCc1ccc2c(c1)OCO2,inactive: -23.6%
10,N#Cc1cccc(C(=O)N(Cc2ccco2)C2CCN(CCc3ccc(Cl)cc3)CC2)c1,inactive: -58.3%
11,Cc1[nH]c2c(N(C(=O)Nc3ccccc3)C3CCN(Cc4ccccc4)CC3)cccc2c1C,inactive: -30.9%
